Test results taken from patent publication US20090068290A1, “BIFEPRUNOX DOSES FOR TREATING SCHIZOPHRENIA” (priority 2006, published 2009).

Tests used:
[1] = Pooled metabolic analysis, 6-week studies: body weight; conditions: 6-week placebo controlled trials, baseline BMI All; BX total doses, RISP 6 mg, OLZ 15 mg, HAL 10 mg
Text: OBJECTIVE: To examine the metabolic effects of bifeprunox in patients with acute and stable schizophrenia.
METHODS: Metabolic data was compiled from one 6-month and four 6-week studies (i.e., a treatment period) of bifeprunox in patients with stable and acute schizophrenia, respectively. In the 6-month study, patients received bifeprunox (n=331) or placebo (PBO) (n=166). […] Metabolic evaluations included body weight, body mass index (BMI), plasma glucose and lipid profiles. Fasting glucose and lipid values were assessed in one 6-week study and in the 6-month study. Triglyceride:HDL ratio (TG:HDL) was calculated as a marker of insulin resistance. No statistical analyses were performed; only descriptive statistics are presented.

[2] = test system: adult subjects with schizophrenia; test: Adverse events (TEAE, SAE, special interest, discontinuation, EPS-related TEAE), Clinical Study Three; conditions: olanzapine 15 mg
Description: There were four treatment arms in this study, approximately 144 subjects per arm. […] After completing the Single-Blind Placebo Lead-in Period of at least three days, bifeprunox-treated subjects were titrated from 0.25 mg up to 20 mg/day or 30 mg/day according to a standardized titration scheme over a seven- or eight-day period, respectively. When the assigned dose was reached, subjects were maintained at that dose for the remainder of the six week treatment period. […] Subjects were hospitalized (if not already inpatients) after eligibility for study entry was verified, starting from the Screening Visit until at least 10 days after Baseline. Subjects could be hospitalized longer than 10 days if considered medically necessary by the Investigator. Rating scale assessments for efficacy and abnormal movement disorders were done weekly except for Week 5. Safety assessments were performed at Screening, during treatment and at the end of the study. Subject satisfaction with study medication was assessed at Week 6. Samples of whole blood were obtained at Weeks 2, 4, and 6 for determination of bifeprunox in plasma.
EPS were assessed using treatment-emergent adverse events such as akathisia, dyskinesia, parkinsoniam, etc. and/or formal rating scales such as SAS, BAS, and/or AIMS.

[3] = Body weight, Clinical Study Three; conditions: olanzapine 15 mg

Row | Structure (SMILES) | ≧7% weight increase, (%) [1] | incidence of dizziness (TEAE of special interest) [2] | incidence of extrapyramidal disorder [2] | subjects who discontinued study medication due to an AE [2] | subjects with at least one AE that led to study termination [2] | subjects with at least one SAE [2] | subjects with at least one TEAE [2] | subjects with at least one severe TEAE [2] | subjects with at least one special interest TEAE [2] | Weight, Baseline Mean of subjects with Endpoint change [3] | Weight, Baseline Mean of subjects with Week 6 change [3] | Weight, Baseline, Median [3] | incidence of markedly abnormal (≧7%) increases in body weight [3] | mean weight change at Endpoint [3]
1 | Cc1cc2c(s1)Nc1ccccc1N=C2N1CCN(C)CC1 [OLZ] | 17.3% | – | – | – | – | – | – | – | – | – | – | – | – | –
2 | Cc1cc2c(s1)Nc1ccccc1N=C2N1CCN(C)CC1 [Olanzapine, olanzapine, reference compound] | – | 5% | 1% | 6% | 6% | 4% | 73% | 6% | 7% | 173.7 lbs | 173.1 lbs | 173 lbs | 19% | 5.2 lbs
